From patent US20230055961A1, “PENTAFLUOROBENZENESULFONAMIDE DERIVATIVES AND USES THEREOF” (Dunad Therapeutics Ltd., priority 2019, published 2023)

Chains of the proteins cited; added tags and fusions are not shown.
UniProt Q06187, whole entry, species assumed: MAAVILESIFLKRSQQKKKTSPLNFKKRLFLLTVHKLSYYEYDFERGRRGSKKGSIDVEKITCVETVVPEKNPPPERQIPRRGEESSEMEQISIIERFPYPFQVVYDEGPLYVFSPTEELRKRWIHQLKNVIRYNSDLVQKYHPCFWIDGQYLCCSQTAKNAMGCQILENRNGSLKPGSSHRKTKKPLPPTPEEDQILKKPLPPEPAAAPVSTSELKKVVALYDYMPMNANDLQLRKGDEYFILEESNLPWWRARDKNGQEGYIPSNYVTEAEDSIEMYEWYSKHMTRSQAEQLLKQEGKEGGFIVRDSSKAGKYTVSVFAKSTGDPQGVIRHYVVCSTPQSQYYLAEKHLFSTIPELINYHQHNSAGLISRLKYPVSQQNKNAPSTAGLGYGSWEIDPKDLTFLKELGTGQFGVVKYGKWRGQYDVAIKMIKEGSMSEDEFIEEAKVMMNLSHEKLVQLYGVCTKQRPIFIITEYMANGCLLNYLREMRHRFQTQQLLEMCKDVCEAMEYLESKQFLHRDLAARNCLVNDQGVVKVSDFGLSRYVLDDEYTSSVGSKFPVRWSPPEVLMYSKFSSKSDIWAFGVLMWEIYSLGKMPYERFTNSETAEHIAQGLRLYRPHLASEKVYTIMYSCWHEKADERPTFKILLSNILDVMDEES

Target: BTK (Homo sapiens, UniProt Q06187)
Assay: In vitro BTK inhibition, biochemical IC50 (no preincubation)
Conditions: Table 8

IC50: 10 to 100 nM
Structure (SMILES): C=CC(=O)Nc1cccc(Nc2nc(Nc3ccc(OCCOC)cc3)ncc2F)c1 [Spebrutinib]
